Among the data in patent US9439888B2, “Tetrazolones as a carboxylic acid bioisosteres” (RIGEL PHARMACEUTICALS, INC., priority 2015, dated 2016) are Kb values, retold here.

In general, Kb refers to the affinity of an antagonist, worked out from how it opposes an agonist. Higher therefore signals a less potent antagonist.

In this test the target is T1, angiotensin II receptor type 1 (AT1) (Homo sapiens, UniProt P30556).
T1 construct: expressed in transfected cells; host or cells: HEK-293
Kind of test: AT1 antagonist activity: inhibition of response to 3 nM angiotensin-II, intracellular Ca2+ by fluorimetry. In kind it is cell-based. The following applies: HEK-293 cells expressing hAT1.

In the case of `CCCc1nc2c(C)cc(-c3nc4ccccc4n3C)cc2n1Cc1ccc(-c2ccccc2C(=O)O)cc1` [Telmisartan, reference compound], the Kb was 0.44 nM.
